The numbers were not newly measured in US6747008B1, “Methods for treating and preventing alopecia” (University of Southern California, priority 2000, dated 2004), which cites them from elsewhere.

The series concerns the target T1, AT2 receptor (Homo sapiens, UniProt P50052).
T1 sequence (P50052 1-363): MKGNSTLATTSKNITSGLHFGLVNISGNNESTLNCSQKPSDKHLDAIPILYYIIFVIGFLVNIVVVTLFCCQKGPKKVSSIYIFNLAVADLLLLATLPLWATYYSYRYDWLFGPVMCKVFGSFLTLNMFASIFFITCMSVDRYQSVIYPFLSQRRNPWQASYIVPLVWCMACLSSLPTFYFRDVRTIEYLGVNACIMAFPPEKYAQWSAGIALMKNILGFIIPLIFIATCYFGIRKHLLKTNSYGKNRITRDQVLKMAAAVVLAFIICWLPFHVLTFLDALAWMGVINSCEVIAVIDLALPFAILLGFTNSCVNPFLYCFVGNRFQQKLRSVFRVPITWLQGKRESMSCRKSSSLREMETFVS
Particulars: experimental models tested; cited from earlier work.

Take “Asp-Arg-Val-Tyr-Ile-Xaa-Pro-Phe [p-aminophenylalanine6-AII]”: the binding characteristics entry was “comparable to AT2 antagonists”.
